In PubChem BioAssay AID624466 (The Scripps Research Institute Molecular Screening Center, 2012):
The entries are a selection whose mix differs from that of the whole data set. Some tests of the compounds listed are not included; inactive here does not mean inactive elsewhere. Active and inactive are the calls of the source.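 The calls were made as follows: active = inhibition above a per-plate cutoff, the mean inhibition of test compounds on that plate plus 3 SD (cut at about 49% in these data); inactive = the rest.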

Protein sequences, listed by entry. Tags and fused reporters are not part of them.
UniProt Q96RJ0, whole entry: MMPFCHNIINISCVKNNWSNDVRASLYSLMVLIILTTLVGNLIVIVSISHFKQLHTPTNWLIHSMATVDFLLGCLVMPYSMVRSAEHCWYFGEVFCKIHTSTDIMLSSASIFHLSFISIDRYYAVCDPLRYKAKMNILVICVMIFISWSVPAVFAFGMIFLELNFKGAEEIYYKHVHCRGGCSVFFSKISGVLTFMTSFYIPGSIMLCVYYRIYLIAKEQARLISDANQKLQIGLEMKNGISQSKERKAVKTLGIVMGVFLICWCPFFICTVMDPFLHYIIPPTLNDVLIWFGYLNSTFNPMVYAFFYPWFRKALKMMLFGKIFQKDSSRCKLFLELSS

These molecules were tested against Trace amine-associated receptor 1 (Homo sapiens) (UniProt Q96RJ0) (assay: human TAAR1 antagonists, primary screen, Fluo-8 calcium fluorescence, CHO RD-HGA16 cells (AID 624466;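 also: 0% = DMSO plus EC80 beta-PEA response and 100% = DMSO alone without agonist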)). Details: CHO RD-HGA16 TAAR1, Fluo-8 calcium fluorescence, antagonist; at 3 µM; active compounds read high.

SMILES | inhibition
COc1ccc(C(=O)NCC2(N(C)C)CCCCC2)cc1 | inactive: -10.7%
Cc1cc(C(=O)NCC2(N3CCCCC3)CCCCC2)ccc1[N+](=O)[O-] | inactive: -19.3%
CCN1CCCC(OC(=O)C2(O)c3ccccc3C=Cc3ccccc32)C1 (stereo unspecified) | inactive: -6.24%
O=C(NCC1(N2CCCCC2)CCCCC1)c1cccc(Br)c1 | inactive: -0.72%
C=CCN1CCN(CCOC(=O)C(O)(c2ccccc2)c2ccccc2)CC1 | inactive: 2.87%
O=C(NCC1(N2CCCCC2)CCCCC1)c1cc(F)c(F)cc1Cl | inactive: -7.13%
Cc1ccccc1C(=O)NCC1(N2CCCCC2)CCCCC1 | inactive: -0.09%
CN(C)C1CCCC1OC(=O)C(O)(c1ccccc1)c1ccccc1 (stereo unspecified) | inactive: -7.39%
CN(C)c1ccc(C(=O)NCC2(N(C)C)CCCCC2)cc1 | inactive: -10.5%
Cc1ccc(C(=O)NCC2(N3CCCCC3)CCCCC2)cc1 | inactive: 3.17%
CCN(CC)CC(C)C(C)OC(=O)C(O)(c1ccccc1)c1ccccc1 (stereo unspecified) | inactive: -20.4%
COc1cc(SC)ccc1C(=O)NCC1(N(C)C)CCCCC1 | inactive: -0.64%
CC(C)N1C(=O)CC2(CCN(CCOC(=O)C(O)(c3ccccc3)c3ccccc3)CC2)C1=O | inactive: 0.14%
CN1[C@@H]2CC[C@H]1CC(OC(=O)C(O)(c1ccccc1)c1ccccc1)C2 (stereo partly specified) | inactive: 1.5%
O=C(NCC1(N2CCCCC2)CCCCC1)c1cc([N+](=O)[O-])ccc1Cl | inactive: -23.5%
CC(C)Oc1ccc(C(=O)NCC2(N(C)C)CCCCC2)cc1 | inactive: -6.29%
O=C(OCCN1CCCC1)C(O)(c1ccccc1)c1ccccc1 | inactive: -3.72%
CN(C)c1cccc(C(=O)NCC2(N(C)C)CCCCC2)c1 | inactive: -11.8%
C=C(C)C#CC(O)(C(=O)OC1CCN(C)CC1)c1ccccc1 (stereo unspecified) | inactive: -20.4%
COc1ccc(Br)c(C(=O)NCC2(N3CCCCC3)CCCCC2)c1 | inactive: -9.04%
O=C(OC1CN2CCC1CC2)C(CO)(c1ccccc1)c1ccccc1 (stereo unspecified) | inactive: 4.36%
O=C(NCC1(N2CCCCC2)CCCCC1)c1cccc(Cl)c1 | inactive: 1.18%
COc1cccc(C(=O)NCC2(N3CCCCC3)CCCCC2)c1 | inactive: -3.16%
COc1ccc(Cl)cc1C(=O)NCC1(N(C)C)CCCCC1 | inactive: -17%
COc1cc(C(=O)NCC2(N(C)C)CCCCC2)c([N+](=O)[O-])cc1OC | inactive: -6.23%
CN(C)C1(CNC(=O)c2ccc(Br)cc2)CCCCC1 | inactive: 3.33%
